This is a selection: effects in other tests are not listed, and their absence says nothing.
Test system: VFA production
Conditions: dose 0.005% DM

`O=[N+]([O-])OCCCO[N+](=O)[O-]` was tested, and the “VFA profile (as percentage of total VFA) ace.” value (acetate) was 59 percentage of total VFA, the “VFA profile (as percentage of total VFA) But.” value (butyrate) was 6 percentage of total VFA and the “VFA profile (as percentage of total VFA) Prop.” value (propionate) was 34 percentage of total VFA.

— US20160183564A1 (priority 2013, published 2016)
